T1: H3K9bz peptide
T1 chain: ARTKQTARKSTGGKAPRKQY


Target: T1, H3K9bz peptide
Test: ITC
Details: chain shown with the change

Binder	Kd [µM]
Hst2, P53686 D68A; D70A (protein) MSVSTASTEMSVRKIAAHMKSNPNAKVIFMVGAGISTSCGIPDFRSPGTGLYHNLARLKLPYPEAVFAVAFFQSDPLPFYTLAKELYPGNFRPSKFHYLLKLFQDKDVLKRVYTQNIDTLERQAGVKDDLIIEAHGSFAHCHCIGCGKVYPPQVFKSKLAEHPIKDFVKCDVCGELVKPAIVFFGEDLPDSFSETWLNDSEWLREKITTSGKHPQQPLVIVVGTSLAVYPFASLPEEIPRKVKRVLCNLETVGDFKANKRPTDLIVHQYSDEFAEQLVEELGWQEDFEKILTAQGGMGDNSKEQLLEIVHDLENLSLDQSEHESADKKDKKLQRLNGHDSDEDGASNSSSSQKAAKE	17.9
Hst2, P53686 I117V (protein) MSVSTASTEMSVRKIAAHMKSNPNAKVIFMVGAGISTSCGIPDFRSPGTGLYHNLARLKLPYPEAVFDVDFFQSDPLPFYTLAKELYPGNFRPSKFHYLLKLFQDKDVLKRVYTQNVDTLERQAGVKDDLIIEAHGSFAHCHCIGCGKVYPPQVFKSKLAEHPIKDFVKCDVCGELVKPAIVFFGEDLPDSFSETWLNDSEWLREKITTSGKHPQQPLVIVVGTSLAVYPFASLPEEIPRKVKRVLCNLETVGDFKANKRPTDLIVHQYSDEFAEQLVEELGWQEDFEKILTAQGGMGDNSKEQLLEIVHDLENLSLDQSEHESADKKDKKLQRLNGHDSDEDGASNSSSSQKAAKE	0.51
Hst2, P53686 F184A (protein) MSVSTASTEMSVRKIAAHMKSNPNAKVIFMVGAGISTSCGIPDFRSPGTGLYHNLARLKLPYPEAVFDVDFFQSDPLPFYTLAKELYPGNFRPSKFHYLLKLFQDKDVLKRVYTQNIDTLERQAGVKDDLIIEAHGSFAHCHCIGCGKVYPPQVFKSKLAEHPIKDFVKCDVCGELVKPAIVFAGEDLPDSFSETWLNDSEWLREKITTSGKHPQQPLVIVVGTSLAVYPFASLPEEIPRKVKRVLCNLETVGDFKANKRPTDLIVHQYSDEFAEQLVEELGWQEDFEKILTAQGGMGDNSKEQLLEIVHDLENLSLDQSEHESADKKDKKLQRLNGHDSDEDGASNSSSSQKAAKE	55.9
Hst2, P53686 H135A (protein) MSVSTASTEMSVRKIAAHMKSNPNAKVIFMVGAGISTSCGIPDFRSPGTGLYHNLARLKLPYPEAVFDVDFFQSDPLPFYTLAKELYPGNFRPSKFHYLLKLFQDKDVLKRVYTQNIDTLERQAGVKDDLIIEAAGSFAHCHCIGCGKVYPPQVFKSKLAEHPIKDFVKCDVCGELVKPAIVFFGEDLPDSFSETWLNDSEWLREKITTSGKHPQQPLVIVVGTSLAVYPFASLPEEIPRKVKRVLCNLETVGDFKANKRPTDLIVHQYSDEFAEQLVEELGWQEDFEKILTAQGGMGDNSKEQLLEIVHDLENLSLDQSEHESADKKDKKLQRLNGHDSDEDGASNSSSSQKAAKE	81.3
Hst2, P53686 I117F (protein) MSVSTASTEMSVRKIAAHMKSNPNAKVIFMVGAGISTSCGIPDFRSPGTGLYHNLARLKLPYPEAVFDVDFFQSDPLPFYTLAKELYPGNFRPSKFHYLLKLFQDKDVLKRVYTQNFDTLERQAGVKDDLIIEAHGSFAHCHCIGCGKVYPPQVFKSKLAEHPIKDFVKCDVCGELVKPAIVFFGEDLPDSFSETWLNDSEWLREKITTSGKHPQQPLVIVVGTSLAVYPFASLPEEIPRKVKRVLCNLETVGDFKANKRPTDLIVHQYSDEFAEQLVEELGWQEDFEKILTAQGGMGDNSKEQLLEIVHDLENLSLDQSEHESADKKDKKLQRLNGHDSDEDGASNSSSSQKAAKE	4.18

Reference: paper PMC8927147, “Global profiling of regulatory elements in the histone benzoylation pathway” (Nature Communications, 2022)
